Source: ChEMBL document CHEMBL1137052 (Bioorg Med Chem Lett, 2004)

Chains of the proteins cited; added tags and fusions are not shown.
UniProt P35367, whole entry: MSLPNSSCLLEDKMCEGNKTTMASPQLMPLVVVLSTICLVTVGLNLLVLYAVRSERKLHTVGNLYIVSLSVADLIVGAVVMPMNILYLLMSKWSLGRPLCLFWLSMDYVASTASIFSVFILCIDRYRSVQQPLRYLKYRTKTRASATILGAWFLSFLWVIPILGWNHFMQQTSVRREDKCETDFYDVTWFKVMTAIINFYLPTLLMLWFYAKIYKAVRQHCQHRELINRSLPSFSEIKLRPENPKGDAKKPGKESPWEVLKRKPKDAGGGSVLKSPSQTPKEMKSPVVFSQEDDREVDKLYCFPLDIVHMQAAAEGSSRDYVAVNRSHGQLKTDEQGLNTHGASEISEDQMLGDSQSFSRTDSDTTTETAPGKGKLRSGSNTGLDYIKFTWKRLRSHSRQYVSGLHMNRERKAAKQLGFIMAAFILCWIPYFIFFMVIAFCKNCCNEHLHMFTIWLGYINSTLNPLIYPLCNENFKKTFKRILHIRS

Each compound was assayed against Histamine H1 receptor (Homo sapiens, UniProt P35367) (assay: biochemical).
Assay type: cell-based, CHO-K1

Ki | SMILES
109 nM | NC(=O)N(O)CCC#Cc1ccc(OCCCN2CCN(C(c3ccc(F)cc3)c3ccc(F)cc3)CC2)cc1
19 nM | NC(=O)N(O)CCC#Cc1ccc(OCCN2CCC(=C3c4ccc(Cl)cc4CCc4cccnc43)CC2)cc1
30 nM | NC(=O)N(O)CCC#Cc1ccc(OCCCCN2CCN([C@H](c3ccccc3)c3ccc(Cl)cc3)CC2)cc1
9 nM | NC(=O)N(O)CCC#Cc1ccc(OCCCN2CCN([C@H](c3ccccc3)c3ccc(Cl)cc3)CC2)cc1
295 nM | NC(=O)N(O)CCC#Cc1ccc(OCCN2CCN(C(c3ccc(F)cc3)c3ccc(F)cc3)CC2)cc1
14 nM | NC(=O)N(O)CCC#Cc1ccc(OCCCN2CCC(=C3c4ccc(Cl)cc4CCc4cccnc43)CC2)cc1
50 nM | NC(=O)N(O)CCC#Cc1ccc(OCCCCN2CCC(=C3c4ccc(Cl)cc4CCc4cccnc43)CC2)cc1
305 nM | NC(=O)N(O)CCC#Cc1ccc(OCCN2CCN([C@H](c3ccccc3)c3ccc(Cl)cc3)CC2)cc1
26 nM | NC(=O)N(O)CCC#Cc1ccc(OCCCCN2CCN(C(c3ccc(F)cc3)c3ccc(F)cc3)CC2)cc1
